For 101 compounds, activation results are on record in PubChem BioAssay AID463141 (The Scripps Research Institute Molecular Screening Center, 2010).

By UniProt entry, the sequences of proteins in these tests, tags left out. Where a name states a change or a piece, a line headed by the entry shows the natural chain unless it says otherwise.
UniProt P42574: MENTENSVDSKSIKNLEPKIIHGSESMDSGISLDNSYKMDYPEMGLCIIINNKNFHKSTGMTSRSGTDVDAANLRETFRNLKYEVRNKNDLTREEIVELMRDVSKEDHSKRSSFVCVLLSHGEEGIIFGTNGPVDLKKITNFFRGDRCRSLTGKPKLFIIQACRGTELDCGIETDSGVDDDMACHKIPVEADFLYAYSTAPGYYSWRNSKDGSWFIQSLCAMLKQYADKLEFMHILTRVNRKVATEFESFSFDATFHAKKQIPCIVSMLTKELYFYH

The list shows a part of the results, in another mix than the full data. Activity calls are given as the source filed them.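 How the source made its calls: active means activation above the mean of all tested compounds plus 3 SD (cut at about 21% in these data); inactive means the rest.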

The assay concerns the target Caspase-3 (Homo sapiens) (UniProt P42574). The assay is described as follows: activators of human procaspase-3 D3A mutant, primary screen, biochemical, absorbance, PC-3 D3A mutant, single concentration (AID 463141).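 Further: 0% = DMSO alone and 100% = DMSO wells spiked with extra 5 µM PC-3 D3A.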 The conditions noted are these: recombinant procaspase-3 D3A, Ac-DEVD-pNA absorbance 405 nm; at 8.5 µM; hits give high values.
Consider `CC(NC(=O)COC(=O)C(O)(c1ccccc1)c1ccccc1)c1ccccc1` (stereo unspecified), for which the activation is inactive: 3.73%.

Consider `Cc1ccccc1OP(=O)(Nc1ccccn1)Oc1ccccc1C`, for which the activation was inactive: -4.05%.

With `CN(C)C(=O)Oc1noc2ccccc12`, the activation is inactive: -8.55%.

As for `O=C(OC1CN2CCC1CC2)c1ccccc1` (stereo unspecified), the activation is inactive: -1.69%.

`CCC(=O)N1C2C3N(C(=O)CC)C1C1N(C(=O)CC)C(C(N1C(=O)CC)N3C(=O)CC)N2C(=O)CC`: the activation is inactive: 0.67%.

In the case of `COC(=O)c1cc2c(s1)N=C(c1ccccc1)N(C)P2(=O)N1CCOCC1` (stereo unspecified), the activation is inactive: 5%.

On to `Cc1ccc(OP(=O)(Nc2ccccn2)Oc2ccc(C)cc2)cc1`, for which the activation was inactive: -0.3%.

As to `CC(=O)NC(SC(=S)N(CC(C)C)CC(C)C)C(Cl)(Cl)Cl` (stereo unspecified), the activation is inactive: -1.88%.

As for `c1ccc(-c2nn[nH]n2)c(-c2nn[nH]n2)c1`, the activation was inactive: 2.95%.

As for `CCOC(=O)NC(Sc1ccccc1)C(Cl)(Cl)Cl` (stereo unspecified), the activation is inactive: 7.7%.

In the case of `Cc1ccc(NP(=O)(Oc2cccc(C)c2)Oc2cccc(C)c2)nc1`, the activation was inactive: -4.05%.

Turning to `O=C(NC1CCS(=O)(=O)C1)NP(=S)(Oc1ccccc1)Oc1ccccc1` (stereo unspecified), the activation was inactive: 6.44%.

Regarding `CCNC(=S)/N=C(\N)N[N+](=O)[O-]`, the activation is inactive: 2.69%.

Regarding `CC(=O)Nc1ccc([As](=O)(O)O)c(O)c1`, the activation is inactive: 2.34%.

`CC(=O)Nc1ccc(Oc2c([N+](=O)[O-])cc([N+](=O)[O-])cc2[N+](=O)[O-])cc1`: the activation is inactive: 3.38%.

As for `Cc1ccccc1CN(C)C(=O)COC(=O)C(O)(c1ccccc1)c1ccccc1`, the activation is inactive: -3.45%.

On to `C[C@H]1OP(=O)(Oc2ccccc2)C[C@@H]2O[C@@H]21` (stereo partly specified), for which the activation was inactive: 7.94%.

For `C[C@@H]1C=CCP(=O)(Oc2ccccc2)O1` (stereo partly specified), the activation was inactive: 6.48%.

On to `CC(=O)c1ccc(N2CC2c2ccncc2)cc1` (stereo unspecified), for which the activation is inactive: -7.74%.

On to `CC(C)(C)C(=O)NC(Sc1ccccc1)C(Cl)(Cl)Cl` (stereo unspecified), for which the activation was inactive: -3.56%.

For the compound `O=P1(Nc2nc3ccc(Cl)cc3s2)COc2ccccc2O1` (stereo unspecified), the activation is inactive: 0.3%.

Turning to `CCOc1ccc(C2=NCC(CBr)S2)cc1` (stereo unspecified), the activation is inactive: -7.09%.

Regarding `c1nnnn1CCn1cnnn1`, the activation was inactive: 6.11%.

In the case of `O=P(Nc1nccs1)(c1ccccc1)c1ccccc1`, the activation is inactive: -2.56%.

In the case of `CC(C)C(=O)NC(Sc1ccccc1)C(Cl)(Cl)Cl` (stereo unspecified), the activation is inactive: 11%.

`O=C(OC1CN2CCC1CC2)c1cccc(Cl)c1` (stereo unspecified): the activation was inactive: -1.36%.

In the case of `C(Cc1nn[nH]n1)Cc1nn[nH]n1`, the activation was inactive: -1.08%.

Consider `Nc1ccc([As](=O)(O)c2ccc([N+](=O)[O-])cc2)cc1`, for which the activation was inactive: 4.9%.

Regarding `O=[As](O)(c1ccccc1)c1ccc(O)cc1`, the activation was inactive: 0.27%.

Regarding `O=[N+]([O-])c1ncn(CCn2cnc([N+](=O)[O-])n2)n1`, the activation is inactive: 3.6%.

For the compound `CC(=O)NC(SC(=S)N(C)C)C(Cl)(Cl)Cl` (stereo unspecified), the activation was inactive: -7.64%.

With `O=[N+]([O-])c1ccc(O)c(/C=N/Nc2ccc([N+](=O)[O-])cc2[N+](=O)[O-])c1`, the activation was inactive: -0.81%.

In the case of `O=P(Nc1nc2ccccc2s1)(c1ccccc1)c1ccccc1`, the activation is inactive: -1.38%.

Take `C[C@H]1OP(=O)(Oc2ccccc2)[C@H](O)[C@H](O)[C@H]1N=[N+]=[N-]` (stereo partly specified): the activation is inactive: 1.33%.

For `CN(C)C1(CNC(=O)c2ccc(Cl)c(S(N)(=O)=O)c2)CCCCC1`, the activation is inactive: 5.96%.

As for `O=P(Nc1ccccn1)(c1ccc(Br)cc1)c1ccc(Br)cc1`, the activation was inactive: -0.17%.

As for `O=[N+]([O-])c1cccc(NC2=NCC(CBr)S2)c1` (stereo unspecified), the activation is inactive: -10.4%.

Take `O=[N+]([O-])c1ncn(CCn2ncnc2[N+](=O)[O-])n1`: the activation was inactive: 3.2%.

With `CC(C)(C)C(=O)NC(Sc1ccncn1)C(Cl)(Cl)Cl` (stereo unspecified), the activation was inactive: -17.4%.

Turning to `O=C(Nc1cc([As](=O)(O)O)ccc1O)c1ccccc1`, the activation was inactive: 3.5%.

On to `CC1CCN(C(=O)Oc2c(Cl)cc(Cl)c3cccnc23)CC1`, for which the activation was inactive: -2.76%.

Regarding `CC(C)=N/N=C(\N)N[N+](=O)[O-]`, the activation is inactive: 1.6%.

Take `CN(C)C(=O)OCCc1n(C)cc[n+]1C`: the activation is inactive: -12.6%.

On to `CCN(/C(=N/P(=O)(N1CCOCC1)N1CCOCC1)N1CCOCC1)c1ccc(OC)cc1`, for which the activation was inactive: 6.06%.

Turning to `Nc1ccc([As](=O)(O)c2ccc(N)cc2)cc1`, the activation is inactive: 2.4%.

In the case of `C[N+]1=C2C=CC=CC=C2SC12C([N+](=O)[O-])=CC([N+](=O)[O-])=C[C-]2[N+](=O)[O-]` (stereo unspecified), the activation was inactive: -27.9%.

In the case of `Cc1ccc(NP(=O)(Oc2ccccc2)Oc2ccccc2)nc1`, the activation is inactive: -5.67%.

On to `O=[N+]([O-])c1cc([N+](=O)[O-])c(CCNc2ccccc2)c([N+](=O)[O-])c1`, for which the activation was inactive: -10%.

Consider `CCc1nc2c(n1)c1c(non1O)c1c2no[n+]1[O-]`, for which the activation is inactive: 1.54%.

In the case of `CC(=O)N1C2C3N(C(C)=O)C1C1N(C(C)=O)C(C(N1C(C)=O)N3C(C)=O)N2C(C)=O`, the activation was inactive: 5.77%.

Turning to `O=[N+]([O-])c1cccc2n[nH]nc12`, the activation is inactive: 12.8%.

For `COc1ccc(C2=NCC(CBr)S2)cc1` (stereo unspecified), the activation is inactive: -10.5%.

As to `Oc1ccccc1CNc1ccccn1`, the activation was inactive: -2.51%.

As to `O=C(NC(Sc1ccncn1)C(Cl)(Cl)Cl)c1ccccc1` (stereo unspecified), the activation was inactive: -25.4%.

As for `Cc1c2non([O-])c-2c(C)[n+](=O)[n+]1[O-]`, the activation is inactive: -23.9%.

As for `Nc1cc(N)c2nonc2c1[N+](=O)[O-]`, the activation was inactive: 8.21%.

On to `CC(C)CC(=O)NC(Sc1ccc(Cl)cc1)C(Cl)(Cl)Cl` (stereo unspecified), for which the activation is inactive: 3.51%.

For `CN1CCCC(OC(=O)C(c2ccccc2)c2ccccc2)C1` (stereo unspecified), the activation was inactive: 0.34%.

Regarding `Clc1ccc(Cl)c(NC2=NCC(CBr)S2)c1` (stereo unspecified), the activation was inactive: -1.68%.

For the compound `COc1ccccc1OP(=O)(Nc1ccc(C)cn1)Oc1ccccc1OC`, the activation was inactive: -3.37%.

For `Cc1ccc(OP(=O)(Nc2nccs2)Oc2ccc(C)cc2)cc1`, the activation was inactive: -8%.

In the case of `CN(C(=O)Cc1ccc(Cl)c(Cl)c1)[C@H]1CCCC[C@H]1N1CCCC1`, the activation is inactive: 0.79%.

In the case of `Cc1ccc(N/C(=N/P(=O)(N2CCOCC2)N2CCOCC2)N2CCOCC2)cc1`, the activation is inactive: 15.6%.

On to `NC(=O)c1cc([N+](=O)[O-])cc([N+](=O)[O-])c1N`, for which the activation was inactive: 0.63%.

On to `CCN(N=Nc1nonc1N)c1nonc1N`, for which the activation is inactive: 3.45%.

Take `O=[N+]([O-])c1cc([N+](=O)[O-])c(CCN2CCOCC2)c([N+](=O)[O-])c1`: the activation was inactive: 0.34%.

Turning to `Cc1cc(SC(NC(=O)c2ccc(F)cc2)C(Cl)(Cl)Cl)ncn1` (stereo unspecified), the activation was inactive: -31.2%.

With `CCOP(=O)(Nc1ccccc1)OCC`, the activation is inactive: -7.25%.

Regarding `CN(C(=O)Cc1ccc(Cl)c(Cl)c1)[C@H]1CCCC[C@@H]1N1CCCC1`, the activation was inactive: 6.94%.

With `Cc1ccc(NP(=O)(Oc2ccccc2F)Oc2ccccc2F)nc1`, the activation was inactive: -4.85%.

As to `O=P(Nc1nc2ccc(Cl)cc2s1)(c1ccccc1)c1ccccc1`, the activation is inactive: 2.27%.

For the compound `CC(=O)Nc1ccc([As](=O)(O)O)cc1`, the activation is inactive: 2.62%.

On to `O=C(O)c1ccccc1[As](=O)(O)O`, for which the activation was inactive: 2.09%.

For `CC(C)NC(=O)NP(=O)(Oc1ccccc1)Oc1ccccc1`, the activation is inactive: 4.98%.

For the compound `CCN(CC)C(=S)SC(NC=O)C(Cl)(Cl)Cl` (stereo unspecified), the activation was inactive: -6.48%.

For the compound `O=[N+]([O-])c1cc([N+](=O)[O-])c(-c2ccn[nH]2)s1`, the activation is inactive: 4.32%.

As to `ClCCSc1nnc(-c2cccnc2)o1`, the activation is inactive: 7.95%.

Turning to `CC(C)c1ccc(OP(=O)(Nc2ccccn2)Oc2ccccc2F)cc1` (stereo unspecified), the activation was inactive: 0.71%.

For `Cc1ccc(OP(=O)(Nc2ccc([N+](=O)[O-])cn2)Oc2ccc(C)cc2)cc1`, the activation is inactive: 0.33%.

For `Cc1ccc2nc3c(c(C)c2c1)CC(C(Cl)Cl)S3` (stereo unspecified), the activation was inactive: 5.19%.

Consider `C[As](=O)(O)c1cccc(C(=O)O)c1`, for which the activation was inactive: -3.34%.

Consider `O=[As](O)(c1ccc(O)cc1)c1ccccc1O`, for which the activation was inactive: -4.2%.

Regarding `COc1cc(C(=O)NCC2(N3CCOCC3)CCCCC2)ccc1OCC(C)C`, the activation is inactive: 11.7%.

In the case of `COc1ccc(N/C(=N/P(=O)(N2CCOCC2)N2CCOCC2)N2CCOCC2)cc1`, the activation was inactive: 1.14%.

Consider `COc1ccc2nc(NP(=O)(c3ccccc3)c3ccccc3)sc2c1`, for which the activation is inactive: -3.51%.

As to `COc1cc(I)ccc1[As](=O)(O)O`, the activation was inactive: -5.3%.

Consider `Cc1c2c(nc3ccccc13)SC(C(Cl)Cl)C2` (stereo unspecified), for which the activation was inactive: -1.11%.

`O=C(OC1CN2CCC1CC2)C12CC3CC(CC(C3)C1)C2` (stereo unspecified): the activation is inactive: 10.3%.

Take `Cc1cc(=O)[nH]c(N[N+](=O)[O-])n1`: the activation was inactive: -9.42%.

Take `CCC(C)N(CC(C)C)C(=S)SC(NC(C)=O)C(Cl)(Cl)Cl` (stereo unspecified): the activation is inactive: -0.94%.

Consider `O=C(OC1CN2CCC1CC2)c1cccc([N+](=O)[O-])c1` (stereo unspecified), for which the activation is inactive: 7.76%.

`CCOC(=O)c1ccc(NC(=O)C(C)(CCl)SC)cc1` (stereo unspecified): the activation was inactive: -11.1%.

In the case of `O=C(COc1ccccc1)OC1CN2CCC1CC2` (stereo unspecified), the activation is inactive: 1.2%.

`O=C(Nc1ccncc1[N+](=O)[O-])c1ccc([N+](=O)[O-])cc1[N+](=O)[O-]`: the activation is inactive: 9.89%.

For `COP1(=S)c2c(C)nn(CCC#N)c2N=C(c2ccc(F)cc2)N1C` (stereo unspecified), the activation is inactive: -2%.

As for `Cc1cc(SC(NC=O)C(Cl)(Cl)Cl)ncn1` (stereo unspecified), the activation is inactive: -20.1%.

Regarding `O=P(Nc1ccccn1)(c1cccc2ccccc12)c1cccc2ccccc12`, the activation is inactive: -6.35%.

As for `CCOC(=O)Nc1cccc([As](=O)(O)O)c1`, the activation is inactive: -2.23%.

Regarding `Cc1cc(SC(NC(=O)c2ccccc2)C(Cl)(Cl)Cl)nc(C(C)C)n1` (stereo unspecified), the activation is inactive: -13.1%.

Consider `CCOC(=O)Nc1ccc([As](=O)(O)O)c(O)c1`, for which the activation was inactive: -7.3%.

Regarding `Nc1cccc([As](=O)(O)c2ccccc2)c1`, the activation was inactive: 5.25%.
